This note sets out measurements from publication doi:10.1101/2022.05.05.490751.

The target in the assay is m10. Briefly: SPR.

Soluble A6 TCR: the Kd was 2000 nM.
